Where two headings read alike, the source gives them in different places.

By UniProt entry, the sequences of proteins in these tests, tags left out.
UniProt P31645, whole entry: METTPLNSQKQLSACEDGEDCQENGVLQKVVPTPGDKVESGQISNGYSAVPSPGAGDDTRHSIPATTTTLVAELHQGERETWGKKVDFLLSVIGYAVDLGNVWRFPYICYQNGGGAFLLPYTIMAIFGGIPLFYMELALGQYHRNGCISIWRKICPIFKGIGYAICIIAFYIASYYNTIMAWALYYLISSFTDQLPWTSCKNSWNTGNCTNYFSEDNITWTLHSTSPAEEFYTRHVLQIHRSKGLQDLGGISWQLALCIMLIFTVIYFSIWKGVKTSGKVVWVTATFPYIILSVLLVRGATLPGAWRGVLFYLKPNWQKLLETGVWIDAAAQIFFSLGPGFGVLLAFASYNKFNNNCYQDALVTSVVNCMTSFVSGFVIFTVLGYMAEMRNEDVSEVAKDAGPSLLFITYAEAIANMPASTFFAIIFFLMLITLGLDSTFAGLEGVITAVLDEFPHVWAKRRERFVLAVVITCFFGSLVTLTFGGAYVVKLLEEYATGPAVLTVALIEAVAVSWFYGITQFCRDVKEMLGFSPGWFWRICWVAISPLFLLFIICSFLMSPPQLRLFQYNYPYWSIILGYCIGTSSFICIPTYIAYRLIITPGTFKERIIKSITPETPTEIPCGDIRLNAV
UniProt Q01959, whole entry: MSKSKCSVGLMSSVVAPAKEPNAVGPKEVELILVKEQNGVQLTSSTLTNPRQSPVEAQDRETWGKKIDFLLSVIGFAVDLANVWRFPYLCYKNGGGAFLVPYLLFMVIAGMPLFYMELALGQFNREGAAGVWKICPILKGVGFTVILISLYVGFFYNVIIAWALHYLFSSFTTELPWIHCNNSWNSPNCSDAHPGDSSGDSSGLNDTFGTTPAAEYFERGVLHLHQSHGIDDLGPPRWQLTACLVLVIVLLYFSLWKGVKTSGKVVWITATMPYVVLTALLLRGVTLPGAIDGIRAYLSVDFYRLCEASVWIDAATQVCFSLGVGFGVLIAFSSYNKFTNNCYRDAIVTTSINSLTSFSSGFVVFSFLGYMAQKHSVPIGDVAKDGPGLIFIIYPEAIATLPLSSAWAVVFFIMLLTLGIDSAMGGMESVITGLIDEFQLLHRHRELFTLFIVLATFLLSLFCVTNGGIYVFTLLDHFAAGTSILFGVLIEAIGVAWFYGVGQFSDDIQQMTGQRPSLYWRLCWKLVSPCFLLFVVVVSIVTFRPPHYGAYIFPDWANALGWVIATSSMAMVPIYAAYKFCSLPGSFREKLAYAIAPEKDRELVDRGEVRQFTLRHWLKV

The target in test [1] is T1, human serotonin transporter (hSERT) (Homo sapiens, UniProt P31645).
Test [2] addresses T1, human serotonin transporter (hSERT). Kind of test: Inhibition of [125I]RTI-55 binding in HEK-hSERT cell membranes.
The target in test [3] is human dopamine transporter (hDAT) (Homo sapiens, UniProt Q01959). The conditions noted are these: read-out: Reuptake (IC50, nM) hDAT; Table 15; mean ± S.E.M.
The mark [4] stands for this setting: read-out: Reuptake (IC50, nM) hSERT, Table 9, mean ± SEM.
The mark [5] stands for this setting: read-out: hSERT reuptake IC50, text of Example 28.
Setting [6] is: read-out: hSERT binding Ki, text of Example 28.
Setting [7] is: read-out: Reuptake (IC50, nM) hSERT.
Where [8] appears, read: read-out: Binding (Ki, nM) hSERT.

As usually defined, the IC50 is the concentration that inhibits the measured activity by half. As to “2-(Aminomethyl)-5-(3′-pyridinylethyl)tetrahydrofuran [Compound 15i]”, the IC50 worked out at 2720 ± 718 nM in test [1] (setting [4]) and 2720 nM in test [1] (setting [5]). For the same compound, the Ki in test [2] (setting [6]) turned out to be 4550 nM.
Consider `COc1ccc(F)cc1CCCC1CCC(CCN)O1` (stereo not drawn) [Compound 15, 2-Aminoethyl-5-(3′-(2″-methoxy-5″-fluorophenyl)-1′-propyl)tetrahydrofuran], for which the 50% inhibitory concentration (IC50) in test [3] turned out to be 17000 ± 1350 nM.
Regarding `NCC1CCC(c2ccccc2)O1` (stereo not drawn) [Compound 15b, 2-Aminomethyl-5-phenyltetrahydrofuran], the IC50 in test [1] (read-out: hSERT reuptake IC50) came out at 1710 nM. Moreover, the Ki in test [2] (read-out: hSERT binding Ki) worked out at 43 nM.
On to `NCC1CCC(CCc2ccccc2)O1` (stereo not drawn) [Compound 15d, 2-(Aminomethyl)-5-phenethyltetrahydrofuran], for which the IC50 in test [1] (setting [5]) stood at 129 nM. Further, the Ki in test [2] (setting [6]) came out at 68 nM.
Take `NCC1CCC(c2ccc(Cl)cc2)O1` (stereo not drawn) [Compound 15f]: in test [1] (read-out: hSERT reuptake IC50), the IC50 was found to be 31.9 nM. Besides, the Ki in test [2] (read-out: hSERT binding Ki) is 1100 nM.
On to `NCC1CCC(c2ccc(Br)cc2)O1` (stereo not drawn) [Compound 15g], for which the IC50 in test [1] (read-out: hSERT reuptake IC50) was 50.3 nM. Further, in test [2] (read-out: hSERT binding Ki), the Ki was found to be 1110 nM.
Consider `NCC1CCC(CCc2c(F)c(F)c(F)c(F)c2F)O1` (stereo not drawn) [Compound 15h, 2-Aminomethyl-5-pentafluorophenethyltetrahydrofuran], for which the IC50 in test [1] (setting [5]) was 225 nM. In addition, the Ki in test [2] (setting [6]) turned out to be 2130 nM.
On to `COc1ccc(C2CCC(CN)O2)cc1` (stereo not drawn) [Compound 15j, 2-Aminomethyl-5-(p-methoxyphenyl)tetrahydrofuran], for which the IC50 amounted to 617 ± 150 nM in test [1] (setting [4]) and 617 nM in test [1] (setting [5]). Further, the Ki in test [2] (setting [6]) worked out at 6880 nM.
Regarding `Cc1cc(CCC2CCC(CCN)O2)ccc1F` (stereo not drawn) [Compound 17c, 2-Aminoethyl-5-(4′-fluoro-3′-methylphenethyl)tetrahydrofuran], the IC50 in test [1] (setting [5]) was determined as 30 nM. Besides, the Ki in test [2] (setting [6]) came out at 688 nM.
For `NCCC1CCC(Cc2ccccc2)O1` (stereo not drawn) [Compound 17d, 2-(2′-aminoethyl)-5-benzyltetrahydrofuran], the IC50 in test [1] (setting [7]) was found to be 2260 ± 203 nM. The Ki in test [2] (setting [8]) was 3820 ± 882 nM; in test [2] (read-out: hSERT binding Ki), 3820 nM.
As for `NCCC1CCC(CCc2ccc(O)cc2)O1` (stereo not drawn) [Compound 17e, 2-Aminoethyl-5-(4′-hydroxyphenethyl)tetrahydrofuran], in test [1] (setting [5]), the IC50 came out at 4040 nM. Further, in test [2] (setting [6]), the Ki is 7480 nM.
Take `CNCCC1CCC(CCc2cc(F)ccc2OC)O1` (stereo not drawn) [Compound 24, (2-{5-[2-(5-Fluoro-2-methoxy-phenyl)-ethyl]-tetrahydro-furan-2-yl}-ethyl)-methyl-amine]: in test [1] (read-out: Reuptake (IC50, nM) hSERT, Table 6), the IC50 worked out at 18.4 nM. In addition, in test [2] (read-out: Binding (Ki, nM) hSERT, Table 15, mean ± S.E.M.), the Ki was found to be 21.2 ± 4.3 nM.
For the compound “N,N-bis(5′- (1″- naphth- ethyl)- 2′-tetra- hydro- furylethyl) amine”, the Ki in test [1] (read-out: Reuptake (kup, nM) hSERT, Table 2) was 718 nM; in test [2] (read-out: Binding (ki, nM) hSERT, Table 2), 283 nM.
In the case of “N-Methyl-2-aminoethyl-5-((2″-methoxy-5″-fluorophenyl)-3′-propyl)tetrahydrofuran”, the IC50 in test [1] (setting [7]) was determined as 3.1 nM. Moreover, the Ki in test [2] (setting [8]) is 4.5 nM.

The values above are taken from patent US20130123253A1, “MODULATORS OF CENTRAL NERVOUS SYSTEM NEUROTRANSMITTERS” (HUMAN BIOMOLECULAR RESEARCH INSTITUTE, priority 2004, published 2013).
